According to article PMC5571939, “The nature of the Syntaxin4 C-terminus affects Munc18c-supported SNARE assembly” (PLoS ONE, 2017):

Biological target: T1, Munc18c:Sx4_(1-298)-TMD (HL-Munc18c with de-tagged full-length Sx4, pre-formed) (mouse, UniProt Q60770 1-592; P70452 1-298)
T1 construct: Munc18c (Munc18-3), mouse; as m12; Syntaxin4 (Sx4) with its C-terminal transmembrane domain, mouse, amino acids 1-298; as m6; also called HL-Munc18c/Sx4 binary complex; source: formed on TALON Co2+ beads from purified E. coli proteins; not shown: His6 with long linker ([residues removed]), N-terminal, kept; His6, N-terminal, cleaved
T1 sequence (looked up) 1: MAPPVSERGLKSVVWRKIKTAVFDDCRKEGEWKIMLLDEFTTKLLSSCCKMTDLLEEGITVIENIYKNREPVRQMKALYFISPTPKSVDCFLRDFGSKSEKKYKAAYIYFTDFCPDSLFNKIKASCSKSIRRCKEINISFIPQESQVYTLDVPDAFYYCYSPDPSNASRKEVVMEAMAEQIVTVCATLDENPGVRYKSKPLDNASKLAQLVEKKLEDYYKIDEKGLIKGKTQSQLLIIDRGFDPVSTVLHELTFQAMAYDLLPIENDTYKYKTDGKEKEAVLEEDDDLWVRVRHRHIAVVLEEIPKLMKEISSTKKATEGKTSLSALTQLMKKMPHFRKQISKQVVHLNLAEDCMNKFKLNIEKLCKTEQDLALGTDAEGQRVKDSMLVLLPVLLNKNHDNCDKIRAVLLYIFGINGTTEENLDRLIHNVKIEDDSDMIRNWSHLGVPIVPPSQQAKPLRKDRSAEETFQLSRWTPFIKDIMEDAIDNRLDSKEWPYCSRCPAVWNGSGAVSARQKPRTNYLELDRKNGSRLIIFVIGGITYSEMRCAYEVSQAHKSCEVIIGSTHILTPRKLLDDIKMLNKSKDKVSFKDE
T1 sequence (looked up) 2: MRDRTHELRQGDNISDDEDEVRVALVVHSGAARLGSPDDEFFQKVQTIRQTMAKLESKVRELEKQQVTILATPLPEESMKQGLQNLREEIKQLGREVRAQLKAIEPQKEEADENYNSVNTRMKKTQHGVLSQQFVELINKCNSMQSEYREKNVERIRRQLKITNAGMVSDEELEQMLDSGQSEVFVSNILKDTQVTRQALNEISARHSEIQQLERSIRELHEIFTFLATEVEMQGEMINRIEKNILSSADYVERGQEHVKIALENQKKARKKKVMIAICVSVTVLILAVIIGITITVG
Experiment: pull-down; beads with pre-formed HL-Munc18c/Sx4 binary complexes incubated with SNAP23 (100 μg, 21.7 μM) and VAMP2 (80 μg, 31.7 μM) together, overnight, 4°C; SDS-PAGE, Coomassie
Details: both partners purified

B1: VAMP2 (GST-cleaved) (domain or fragment)
chain: not shown
notes: VAMP2, rat, […]; also called synaptobrevin; source: purified (GSH-agarose, thrombin cleavage, MonoS cation exchange)
binding result: binds
